The target in assay [1] is T1, Human adenosine A1 receptors (Homo sapiens, UniProt P30542). Kind of assay: biochemical.
In assay [2] the target is T1, Human adenosine A1 receptors. The assay can be described thus: Adenosine A1 receptor functional assay ([35S]-GTPγS binding, assay conditions II). Conditions: 1. and 2. Measurement. (In general: GTPγS is a poorly hydrolysed GTP analogue; its binding reports G protein activation.)

Protein sequences, listed by entry. Tags and fused reporters are not part of them.
UniProt P30542, whole entry: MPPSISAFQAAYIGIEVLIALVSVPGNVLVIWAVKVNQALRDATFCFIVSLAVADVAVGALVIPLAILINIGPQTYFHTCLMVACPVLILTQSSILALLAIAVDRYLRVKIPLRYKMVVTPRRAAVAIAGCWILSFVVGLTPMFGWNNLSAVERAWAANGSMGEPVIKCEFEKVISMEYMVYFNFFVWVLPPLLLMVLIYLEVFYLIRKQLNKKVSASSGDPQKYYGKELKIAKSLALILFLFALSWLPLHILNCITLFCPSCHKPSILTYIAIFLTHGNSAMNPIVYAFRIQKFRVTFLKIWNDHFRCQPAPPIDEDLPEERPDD

Here are results for 1 compound from patent EP4631502A1 (Nicoventures Trading Limited, priority 2024, dated 2025).

“And” between values parts separate entries of the source, which are not always exact repeats. Identical values can stand only once.

As for `COc1ccc(-c2cc(=O)c3c(OC)c(OC)c(OC)cc3o2)cc1` [Tetramethylscutallarein, Scutallarein tetramethyl ether], the IC50 (usually the concentration that gives 50% inhibition) in assay [1] (IC50 1.M, first measurement, [3H]-DPCPX 1 nM, 60 min, 27°C) is 4.8 µM; in assay [1] (IC50 2.M, second measurement, [3H]-DPCPX 1 nM, 60 min, 27°C) it was 9.3 µM; in assay [1] (IC50 Mean, mean of 1.M and 2.M), 7.1 µM; in assay [2] (IC50 in µM agonist mode, agonist mode (effect on basal signal)), 2 µM and 7 µM; in assay [2] (IC50 in µM antagonist mode, antagonist mode (CCPA-stimulated signal)) it was 9 µM and 13 µM.
